The values below come from patent US9598420B2, “Benzodiazepine bromodomain inhibitor” (GlaxoSmithKline LLC, priority 2009, dated 2017).

Like-named read-outs stand apart in the source and are kept apart here.

The subject of assay [1] is LPS induced IL-6 secretion from whole blood. In words: Measurement of LPS Induced IL-6 Secretion from Whole Blood. The format is cell-based. The settings on record: LPS 200 ng/ml, 24 hours, immunoassay, read-out: pIC50 (IL-6 levels) (converted). On the procedure:
Activation of monocytic cells by agonists of toll-like receptors such as bacterial lipopolysaccharide (LPS) results in production of key inflammatory mediators including IL-6. Such pathways are widely considered to be central to the pathophysiology of a range of auto-immune and inflammatory disorders.
After further incubation for 24 hours at 37 degrees, 140 ul of PBS are added to each well. The plates are sealed, shaken for 10 minutes and then centrifuged (2500 rpm×10 min). 100 ul of the supernatant are removed and IL-6 levels assayed by immunoassay (typically by MesoScale Discovery technology) either immediately or following storage at −20 degrees.

For assay [2], the system named is lethal dose of LPS (endotoxemia). The conditions noted are these: 15 mg/kg LPS intraperitoneal; compound 10 mg/kg intravenously ninety minutes later; summed across multiple repeat experiments.
The test system of assay [3] is Human cell lines (n=33 comprising 15 heme cell lines, 14 breast cell lines and 4 other cell lines). In words: cells. The settings on record: 72 h.
Assay [4] relates to TNFα levels in LPS stimulated whole blood. In words: LPS Stimulated Whole Blood Measuring TNFα Levels Assay. The format is cell-based. The settings on record: 24 h, LPS 200 ng/ml, immunoassay, read-out: pIC50 (TNFα levels) (converted). On the procedure: Activation of monocytic cells by agonists of toll-like receptors such as bacterial lipopolysaccharide (LPS) results in production of key inflammatory mediators including TNFα. Such pathways are widely considered to be central to the pathophysiology of a range of auto-immune and inflammatory disorders.
After further incubation for 24 hours at 37 degrees, 140 ul of PBS are added to each well. The plates are sealed, shaken for 10 minutes and then centrifuged (2500 rpm×10 min). 100 ul of the supernatant are removed and TNFα levels assayed by immunoassay (typically by MesoScale Discovery technology) either immediately or following storage at −20 degrees.

Regarding `CCNC(=O)C[C@@H]1N=C(c2ccc(Cl)cc2)c2cc(OC)ccc2-n2c(C)nnc21` [Example 1, 2-[(4S)-6-(4-Chlorophenyl)-1-methyl-8-(methyloxy)-4H-[1,2,4]triazolo[4,3-a][1,4]benzodiazepin-4-yl]-N-ethylacetamide], the IC50 in assay [1] was at most 10 µM; in assay [3] (read-out: gIC50, across all cell lines), 0.163 to 29.3 µM; in assay [3] (read-out: gIC50, breast cell lines), 0.41 to 29.3 µM; in assay [3] (read-out: gIC50, heme cell lines) it was 0.163 to 2.48 µM. Moreover, the “Animals surviving at 4 days, percent” value in assay [2] was “(52%)”. Further, the “Numbers of animals surviving at 4 days” value in assay [2] is recorded as 24/56.

For the compound `CCNC(=O)C[C@H]1N=C(c2ccc(Cl)cc2)c2cc(OC)ccc2-n2c(C)nnc21` [Example 81], the IC50 in assay [4] is at most 10 µM; in assay [1], over 10 µM.
